Here are results for 17 compounds from PubChem BioAssay (EPA / NIEHS).

This is a selection; strong and weak results do not stand in their true shares. Calls of active or inactive are those of the source. How the source made its calls: active means hit-call score of the fitted dose curve at least 0.9, where 1 is the maximum; inactive means score below 0.9.

This assay is described as follows: ATG_NFI_CIS: Attagene CIS-FACTORIAL HepG2 Assay for human Nuclear Factor I (NFI) (AID 2282989). The note with it: HepG2 cis-regulatory reporter, NFI response element transcription; actives raise or lower the signal. On the procedure:
ATG_CIS is a cell-based, multiplexed-readout assay that uses HepG2, a human liver cell line, with measurements taken at 24 hours after chemical dosing in a 24-well plate.ATG_NFI_CIS is one of 52 assay component(s) measured or calculated from the ATG_CIS assay. It is designed to make measurements of mRNA induction, a form of inducible reporter, as detected with fluorescence intensity signals by Reverse transcription polymerase chain reaction (RT-PCR) and Capillary electrophoresis technology.Data from the assay component ATG_NFI_CIS was analyzed into 1 assay endpoint. This assay endpoint, ATG_NFI_CIS, was analyzed with bidirectional fitting relative to DMSO as the negative control and baseline of activity. Using a type of inducible reporter, measures of mRNA for gain or loss-of-signal activity can be used to understand the reporter gene at the transcription factor-level as they relate to the gene NFIA. Furthermore, this assay endpoint can be referred to as a primary readout, because this assay has produced multiple assay endpoints where this one serves a reporter gene function. To generalize the intended target to other relatable targets, this assay endpoint is annotated to the dna binding intended target family, where the subfamily is nuclear factor I.
Human liver HepG2 cells are transiently transfected with multiple reporter transcription units (MRTUs) in 6-well plates using FuGene 6 reagent (Roche; 3 ml FuGene/1 mg DNA). The MRTU constructs are regulated by a cis-regulating element (promoter). […] A major difference between the CIS and TRANS system is that in CIS activities of endogenous TFs are measured, whereas the TRANS assay evaluates changes in activities of exogenous, chimeric NR-Gal4 proteins. […] At the end of 24 hour incubation, total RNA was isolated using TriZol reagent (Invitrogen). The isolated RNA is then reverse-transcribed using oligo(dT) primer and Mo-MLV reverse transcriptase (Invitrogen) with DNAse I (Ambion) treatment for 30 min. The one-tenth of the produced cDNA was amplified by PCR using Taq DNA polymerase (Invitrogen) and two reporter sequence-specific primers. The PCR products were fluorescently labeled by primer extension with 6-arboxyfluorescein (6-FAM) 5'-labeled reporter sequence-specific primer (2 min at 95 C, 20 s at 68 C and 10 min at 72 C) and these products were digested with 5U of HpaI (New England Biolabs) for 2h at 37 C. The fragments were purified using Qiaquick PCR columns (Qiagen), analyzed on an ABI 3130xL genetic analyzer (Applied Biosystems) with peak positions identified by using a set of X-rhodamine (ROX)-labeled MapMarker1000 molecular weight standards (BioVentures). The raw capillary electrophoresis data was processed using Attagraph software (Attagene).
For `Cc1cc([N+](=O)[O-])cc([N+](=O)[O-])c1O`, the call was inactive. `CCCCO[P+](=O)OCCCC`: the compound was called inactive. Turning to `CC(C)CCCCCCCOP(OCCCCCCCC(C)C)Oc1ccccc1`, the compound was classed as inactive. For `O=C(Cl)Oc1ccccc1`, the outcome was inactive. The same measure, in the same setting: the result for `O=P(Cl)(Oc1ccccc1)Oc1ccccc1` reads “inactive”. `O=[N+]([O-])c1ccc([N+](=O)[O-])cc1`: the AC50 was active: 60.6 µM. On to `O=[As]c1ccccc1` (configuration not stated), for which the concentration at half-maximal activity (AC50) was active: 0.279 µM. With `O=[p+]1oc2ccccc2c2ccccc21` (configuration not stated), the compound was classed as inactive. With `O=C(Cl)OCCOC(=O)Cl`, the compound was classed as inactive. Consider `ClP(Cl)c1ccccc1`, for which the compound was called inactive.

As to `CN(C(=O)Cc1cccc2occc12)[C@H]1CC[C@@]2(CCCO2)C[C@@H]1N1CCCC1`, the call was inactive. Take `O=C1C2CC=CCC2C(=O)N1SC(Cl)(Cl)C(Cl)Cl` (configuration not stated): the compound was classed as inactive.

Turning to `CCCCC(CC)CO[P+](=O)OCC(CC)CCCC` (configuration not stated), the compound was classed as inactive. In the case of `O=[P+](Oc1ccccc1)Oc1ccccc1`, the result was inactive. As for `N#CSc1ccc([N+](=O)[O-])cc1[N+](=O)[O-]`, the compound was classed as inactive. As for `CCCCOP(OCCCC)OCCCC`, the outcome was inactive. With `CC(C)OP(=S)(OC(C)C)SCCNS(=O)(=O)c1ccccc1`, the compound was classed as inactive.

As usually defined, the AC50 is the concentration at which the activity in the assay is half-maximal.
